## Apparent affinities of Ab-14 variants for a coronavirus HR2 peptide

Target peptide (SARS-CoV-2 spike, HR2 region): PDVDLGDISGINAS

The variants keep the heavy chain, the linker and the frameworks of Ab-14 (scFv order VH, a 15-residue (Gly4Ser)3 linker, VL).
VH: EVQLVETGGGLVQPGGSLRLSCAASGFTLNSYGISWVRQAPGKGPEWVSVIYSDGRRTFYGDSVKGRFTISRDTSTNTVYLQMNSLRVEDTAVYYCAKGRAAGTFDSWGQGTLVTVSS
VL: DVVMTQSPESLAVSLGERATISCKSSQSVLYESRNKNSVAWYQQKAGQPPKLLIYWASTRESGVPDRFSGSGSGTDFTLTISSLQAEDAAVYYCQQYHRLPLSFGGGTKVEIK

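Variants in AAYL50 differ from the parent at up to three CDR positions; double and triple changes were sampled at random. In AlphaSeq, yeast of one mating type display the scFv and yeast of the other type display the target. The frequency of each diploid, read from paired DNA barcodes, reflects how well the two displayed proteins bind. Each replicate has its own calibration line, from reference interactions of the BCL2 family. Mating was done three times.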

Substitutions are numbered in sequence along the VL above, starting at 1 (not Kabat). Values are log10 of the apparent Kd in nM; lower means stronger binding. A mean of the replicates is given; it leaves out those without a signal. "nd" marks a missing value. The strain was present, yet no cells mated with the target were sequenced in that replicate, which points to weak or no binding. Nonspecific signal, from three strains lacking the peptide, appeared in 18% of pairings of library AAYL50, centred on 4.19 (5% of these signals below 2.99); values are not corrected for it. Also given: how often the same scFv was detected with the empty control strains, with their mean in brackets.

changes,"log10 Kd, replicates",mean log10 Kd (nM),empty controls
A40S/S62Q/P101C,5.51 / 2.67 / 5.31,4.50,1 of 9 (4.36)
V29Q/R60A/P101T,nd / nd / nd,nd,0 of 9
T59S/L100V/L102V,1.61 / 1.64 / 1.57,1.61,0 of 9
A57T/T59N/R99V,2.37 / 2.39 / 2.62,2.46,7 of 9 (4.15)
S25E/N37E/A40L,nd / nd / nd,nd,0 of 9
A57Y/S62C/P101C,nd / 4.18 / 5.69,4.93,2 of 9 (5.13)
R34A/L100I/L102C,nd / nd / 5.30,5.30,0 of 9
L30H/L100G,nd / nd / nd,nd,0 of 9
S25C/L102K,nd / nd / nd,nd,4 of 9 (3.92)
N37R/W56S/P101F,nd / nd / nd,nd,1 of 9 (3.88)
V29Y/R34D/S103I,0.61 / 0.86 / 0.75,0.74,0 of 9
K36C,1.26 / 1.40 / 1.44,1.37,0 of 9
S25Q/Q27W/A40H,nd / 4.16 / nd,4.16,4 of 9 (3.70)
K24L/S26W/A57S,4.36 / 3.76 / nd,4.06,1 of 9 (4.66)
K24E/Y31I/N35M,1.07 / 1.15 / 1.15,1.13,3 of 9 (4.85)
K24W/L30I/V39P,nd / nd / nd,nd,1 of 9 (2.32)
S28D/Y31Q/R99T,1.40 / 1.35 / 1.32,1.35,5 of 9 (4.35)
V39K/Q95E/R99G,4.08 / 2.93 / nd,3.51,2 of 9 (4.77)
K36V/N37L/L102Y,3.81 / 3.70 / 5.32,4.28,3 of 9 (4.26)
A57W/S58T/E61P,nd / 3.68 / nd,3.68,3 of 9 (4.02)
A57S/E61W,2.18 / 2.18 / 2.60,2.32,8 of 9 (4.49)
S38C/T59S,4.20 / 2.23 / nd,3.22,1 of 9 (2.82)
S58D/S62M/L102C,0.31 / 0.60 / 0.42,0.45,3 of 9 (4.76)
S26Q/Q95K/Y97P,nd / nd / 5.05,5.05,0 of 9
R60A/E61F/P101D,3.72 / 3.23 / 4.96,3.97,4 of 9 (3.96)
S26E/Q27N/Y97R,0.61 / 0.86 / 0.85,0.77,4 of 9 (4.45)
S26G/A40C/W56G,nd / nd / nd,nd,0 of 9
K24V/K36P/A40F,nd / 4.36 / 3.73,4.05,0 of 9
K24H/S28G/E61P,2.06 / 1.82 / 1.82,1.90,0 of 9
H98C/L100Y/S103E,3.96 / nd / 5.16,4.56,4 of 9 (3.93)
L30M/S62N/Y97V,nd / nd / nd,nd,4 of 9 (4.05)
V29Q/R60L/H98G,nd / 2.27 / nd,2.27,0 of 9
R34M/S58W/T59A,2.05 / 1.80 / 2.18,2.01,4 of 9 (3.11)
L30Y/Y31N/A57Q,1.46 / 1.71 / 1.66,1.61,2 of 9 (4.57)
K24D/Y31G/S62W,2.33 / 2.46 / 1.75,2.18,0 of 9
V29D/A40E/W56P,nd / 5.53 / nd,5.53,5 of 9 (4.17)
S25W/V29K/R34W,nd / 2.98 / nd,2.98,1 of 9 (3.60)
R34P/V39E/L102A,5.26 / nd / 5.22,5.24,3 of 9 (3.82)

Picked from the list: the 5 lowest averages where every replicate gave a value.

changes,"log10 Kd, replicates",mean log10 Kd (nM),empty controls
S58D/S62M/L102C,0.31 / 0.60 / 0.42,0.45,3 of 9 (4.76)
V29Y/R34D/S103I,0.61 / 0.86 / 0.75,0.74,0 of 9
S26E/Q27N/Y97R,0.61 / 0.86 / 0.85,0.77,4 of 9 (4.45)
K24E/Y31I/N35M,1.07 / 1.15 / 1.15,1.13,3 of 9 (4.85)
S28D/Y31Q/R99T,1.40 / 1.35 / 1.32,1.35,5 of 9 (4.35)

Data: MIT Lincoln Laboratory AlphaSeq set, Engelhart et al. 2022, doi:10.1038/s41597-022-01779-4, as distributed in FLAb.